## Yeast mating assay B: variants of the scFv Ab-14

Target peptide (SARS-CoV-2 spike, HR2 region): PDVDLGDISGINAS

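Phage display of a naive human antibody library on the peptide gave the parent. These sequences belong to a second round, designed from the earlier measurements on random variants of the parent. Their group label is 14H_En_Gen (En: ensemble of fine-tuned language models; Gen: genetic algorithm). The assay is AlphaSeq: two haploid yeast populations carry antibody and antigen on their surface. After mating in shaken culture at 30 °C for 16 h, diploids were selected and their barcode pairs sequenced. Scores were corrected for input abundance and mapped to Kd with protein pairs of known affinity run in the same pool. Each pool was mated in six replicate cultures.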

Parent: Ab-14, a human scFv built as VH, three GGGGS repeats, VL. Only the CDRs of the heavy chain vary.
VH: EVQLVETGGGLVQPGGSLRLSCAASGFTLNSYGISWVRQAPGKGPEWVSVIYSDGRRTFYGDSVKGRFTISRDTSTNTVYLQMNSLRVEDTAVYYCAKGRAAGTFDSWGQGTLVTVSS
VL: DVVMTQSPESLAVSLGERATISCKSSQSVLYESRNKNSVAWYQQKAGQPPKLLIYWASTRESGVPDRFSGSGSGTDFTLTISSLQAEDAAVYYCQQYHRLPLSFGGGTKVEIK

Each variant is given by its three heavy chain CDRs, as the data file delimits them; those of the parent are GFTLNSYGIS, VIYSDGRRTFYGDSVK, GRAAGTFDS.
Scale: log10 of Kd in nM, estimated from mating counts; low values are strong binders.
Replicates are averaged; those with no signal do not enter the mean.
A pair that was not seen in that replicate is written "n.d."; this usually means weak binding, but a binder can also be missed.
Values of this round are not directly comparable with the first-round values of the same sequences.

| CDR-H1 | CDR-H2 | CDR-H3 | replicates, log10 nM | log10 Kd (nM), mean | signal with controls |
|---|---|---|---|---|---|
| GFDLNEYGIS | VIYADGMRQAYADSVK | GNVAGTFDI | 0.23 -0.44 -0.50 -0.48 -0.64 -0.21 | -0.34 | 0 of 18 |
| GFDLDEYGIS | VIYADGVRTAYADSVK | GNTAGTFDT | -2.47 -2.67 -2.12 -1.93 -2.43 -1.23 | -2.14 | 0 of 18 |
| GFDLNEYGIS | VIYADGMRTAYTDSVK | GGNAGTFDM | 0.29 -0.06 -0.23 -0.16 -0.14 -0.18 | -0.08 | 0 of 18 |
| GFDLNEYGIS | VIYADGFRTAYADSVK | GNVAGTFDV | -0.68 -0.48 -0.80 -0.74 -0.84 -0.38 | -0.65 | 1 of 18 (1.80) |
| GFDLNEYGIS | VIYADGMRTAYVDSVK | GENAGTFDT | 0.26 0.10 -0.41 -0.22 0.17 -0.04 | -0.02 | 0 of 18 |
| GFDLNEYGIS | VIYADGVRSAYADSVK | GNVAGTFDV | -0.78 -0.85 -0.89 -1.08 -1.02 -0.81 | -0.90 | 1 of 18 (2.28) |
| GFDLNEYGIS | VIYADGMRKSYADSVK | GENAGTFDV | -0.22 -0.42 -0.25 -0.48 -0.47 -0.21 | -0.34 | 0 of 18 |
| GFDLNEYGIS | VIYADGVRKAYADSVK | GNEAGTFDV | -0.40 -0.88 -0.91 -1.02 -0.68 -0.28 | -0.69 | 1 of 18 (1.03) |
| GFDLNEYGIS | VIYADGVRKAYADSVK | GNVAGTFDQ | 0.32 -0.33 -0.29 -0.90 -1.12 1.14 | -0.20 | 0 of 18 |
| GFDLNEYGIS | VIYADGKRTAYADSVK | GGNAGTFDQ | 0.17 -0.39 0.19 -0.45 -0.67 -0.35 | -0.25 | 0 of 18 |
| GFDLNEYGIS | VIYADGMRTFYADSVK | GETAGTFDM | -0.70 -0.55 -0.75 -1.01 -0.91 -0.79 | -0.78 | 0 of 18 |
| GFDLDEYGIS | VIYADGVRTAYADDVK | GENAGTFDI | -0.10 -0.10 -0.27 -0.36 -0.47 -0.22 | -0.25 | 0 of 18 |
| GFDLDEYGIS | VIYADGMRTAYSDSVK | GGNAGTFDL | n.d. 2.40 n.d. n.d. n.d. n.d. | 2.40 | 0 of 18 |
| GFDLDEYGIS | VIYADGMRTAYSDSVK | GNVAGTFDT | -0.47 -0.51 -0.52 -0.86 -0.81 -0.49 | -0.61 | 1 of 18 (2.00) |
| GFDLNEYGIS | VIYADGRRTAYIDSVK | GENAGTFDI | 0.21 0.17 -0.33 -0.41 -0.15 -0.28 | -0.13 | 0 of 18 |
| GFDLNEYGIS | VIYADGMRTAYQDSVK | GENAGTFDI | 0.41 0.61 -0.01 0.07 0.76 0.93 | 0.46 | 1 of 18 (1.69) |
| GFDLNEYGIS | VIYADGRRTAYSDDVK | GNNAGTFDV | -0.63 -0.48 -0.53 -0.67 -0.72 -0.37 | -0.57 | 0 of 18 |
| GFDLNEYGIS | VIYADGKRTVYADSVK | GTNAGTFDV | -0.31 -0.34 -0.30 -0.47 -0.59 -0.30 | -0.39 | 0 of 18 |
| GFDLNEYGIS | VIYADGMRTAYSDKVK | GGNAGTFDV | -0.33 -0.67 -0.36 -1.22 -1.06 -0.53 | -0.70 | 0 of 18 |
| GFDLNEYGIS | VIYADGRRTFYADSVK | GQNAGTFDV | 0.05 -0.23 -0.60 -0.83 -0.19 0.14 | -0.28 | 0 of 18 |
| GFDLDEYGIS | VIYADGMRTAYSDSVK | GNTAGTFDL | -0.25 -0.33 -0.49 -0.39 -0.42 -0.35 | -0.37 | 0 of 18 |
| GFDLDEYGIS | VIYADGQRTAYSDSVK | GETAGTFDQ | 0.10 0.01 0.03 -0.16 -0.40 0.01 | -0.07 | 0 of 18 |
| GFDLNEYGIS | VIYADGMRTFYTDSVK | GENAGTFDV | -0.27 -0.53 -0.48 -0.37 -0.41 -0.27 | -0.39 | 0 of 18 |
| GFDLNEYGIS | VIYADGVRTAYADNVK | GNVAGTFDV | -0.34 -0.17 -0.78 -0.83 -0.75 0.03 | -0.47 | 0 of 18 |
| GFDLNEYGIS | VIYADGVRTVYADSVK | GNVAGTFDV | -0.47 -0.73 -0.84 -0.69 -0.58 -0.33 | -0.61 | 0 of 18 |
| GFDLNEYGIS | VIYADGMRTAYSDSVK | GEIAGTFDI | 0.30 -0.18 -0.12 -0.41 -0.26 -0.35 | -0.17 | 1 of 18 (2.12) |
| GFDLEEYGIS | VIYADGKRTAYSDSVK | GNVAGTFDV | -0.57 -0.51 -0.65 -0.83 -0.83 -0.39 | -0.63 | 0 of 18 |
| GFDLDEYGIS | VIYADGVRTAYSDSVK | GENAGTFDM | 0.31 1.19 0.47 0.83 1.96 0.74 | 0.92 | 0 of 18 |
| GFDLNEYGIS | VIYADGSRTAYSDSVK | GQNAGTFDI | 0.02 -0.29 -0.33 -0.41 -0.38 -0.06 | -0.24 | 3 of 18 (2.57) |
| GFDLNEYGIS | VIYADGVRTAYADSVK | GSNAGTFDV | -0.33 -0.40 -0.42 -0.64 -0.41 -0.59 | -0.47 | 0 of 18 |
| GFDLDEYGIS | VIYADGMRTAYADSVK | GGNAGTFDI | -0.45 -0.34 -0.38 -0.41 -0.40 0.15 | -0.31 | 0 of 18 |
| GFDLNEYGIS | VIYADGMRKAYTDSVK | GNVAGTFDV | -0.32 -0.40 -0.57 0.29 -0.55 -0.43 | -0.33 | 1 of 18 (0.87) |
| GFDLDEYGIS | VIYADGMRTAYADNVK | GQVAGTFDV | -0.46 -0.24 -0.25 -0.37 -0.58 -0.24 | -0.36 | 0 of 18 |
| GFDLDEYGIS | VIYADGMRTAYADTVK | GNVAGTFDL | -0.32 -0.98 -1.09 -1.52 -0.93 -0.91 | -0.96 | 0 of 18 |
| GFDLNEYGIS | VIYADGMRTAYADSVK | GNIAGTFDI | -0.09 -0.40 -0.28 -0.50 -0.63 -0.33 | -0.37 | 0 of 18 |
| GFNLDEYGIS | VIYADGKRTAYSDSVK | GEVAGTFDV | -0.14 -0.27 -0.44 -0.62 -0.35 -0.18 | -0.34 | 0 of 18 |
| GFDLNEYGIS | VIYADGVRQAYADSVK | GEVAGTFDV | -0.51 0.21 -0.52 -1.03 -0.43 -0.28 | -0.43 | 0 of 18 |
| GFDLNEYGIS | VIYADGKRTAYADSVK | GNEAGTFDI | -0.14 n.d. -0.29 n.d. 0.06 n.d. | -0.12 | 0 of 18 |
| GFDLNEYGIS | VIYADGMRTAYTDDVK | GNVAGTFDV | -0.26 -0.37 -0.33 -0.91 -0.79 -0.12 | -0.46 | 0 of 18 |
| GFDLNEYGIS | VIYADGMRTAYADSVK | GNVAGTFDI | -0.98 -0.93 -0.94 -1.58 -0.58 -0.75 | -0.96 | 0 of 18 |
| GFDLNEYGIS | VIYADGIRTAYADSVK | GNVAGTFDQ | -0.32 -1.55 -1.09 -1.44 0.18 -0.76 | -0.83 | 0 of 18 |
| GFDLNEYGIS | VIYADGMRTAYSDSVK | GVNAGTFDV | -0.20 -0.60 -0.30 -0.46 -0.36 -0.34 | -0.38 | 1 of 18 (1.42) |
| GFDLDEYGIS | VIYADGKRTAYADSVK | GTNAGTFDQ | -0.11 -0.14 -0.49 -0.66 -0.27 -0.20 | -0.31 | 0 of 18 |
| GFDLDEYGIS | VIYADGMRTAYTDSVK | GNVAGTFDL | 1.22 0.79 0.65 0.63 0.60 1.28 | 0.86 | 0 of 18 |
| GFDLDEYGIS | VIYADGMRTAYTDSVK | GNNAGTFDI | -1.04 -1.10 -0.95 0.85 0.07 0.26 | -0.32 | 0 of 18 |
| GFDLDEYGIS | VIYADGKRTAYSDSVK | GETAGTFDV | 0.07 -0.09 -0.15 -0.48 -0.34 -0.24 | -0.21 | 0 of 18 |
| GFDLNEYGIS | VIYADGQRTAYADDVK | GNTAGTFDI | n.d. n.d. n.d. n.d. n.d. n.d. | n.d. | 0 of 18 |
| GFDLNEYGIS | VIYADGQRTAYSDSVK | GEVAGTFDT | 0.01 -0.06 -0.64 -1.07 -0.22 -0.61 | -0.43 | 0 of 18 |
| GFDLDEYGIS | VIYADGQRTAYSDDVK | GENAGTFDV | 0.17 -0.31 -0.06 -0.01 0.31 0.51 | 0.10 | 0 of 18 |
| GFDLDEYGIS | VIYADGMRTAYADSVK | GENAGTFDI | 1.04 0.50 -0.29 0.19 -0.22 0.25 | 0.25 | 1 of 18 (1.55) |
| GFDLNEYGIS | VIYADGQRTAYADSVK | GNTAGTFDT | -0.59 -0.64 -0.49 -0.57 -1.06 -0.62 | -0.66 | 0 of 18 |
| GFDLNEYGIS | VIYADGVRTAYSDKVK | GENAGTFDV | 0.09 0.22 0.23 -0.43 0.04 -0.04 | 0.02 | 0 of 18 |

The 6 strongest on average among those seen in every replicate, once more:

| CDR-H1 | CDR-H2 | CDR-H3 | replicates, log10 nM | log10 Kd (nM), mean | signal with controls |
|---|---|---|---|---|---|
| GFDLDEYGIS | VIYADGVRTAYADSVK | GNTAGTFDT | -2.47 -2.67 -2.12 -1.93 -2.43 -1.23 | -2.14 | 0 of 18 |
| GFDLNEYGIS | VIYADGMRTAYADSVK | GNVAGTFDI | -0.98 -0.93 -0.94 -1.58 -0.58 -0.75 | -0.96 | 0 of 18 |
| GFDLDEYGIS | VIYADGMRTAYADTVK | GNVAGTFDL | -0.32 -0.98 -1.09 -1.52 -0.93 -0.91 | -0.96 | 0 of 18 |
| GFDLNEYGIS | VIYADGVRSAYADSVK | GNVAGTFDV | -0.78 -0.85 -0.89 -1.08 -1.02 -0.81 | -0.90 | 1 of 18 (2.28) |
| GFDLNEYGIS | VIYADGIRTAYADSVK | GNVAGTFDQ | -0.32 -1.55 -1.09 -1.44 0.18 -0.76 | -0.83 | 0 of 18 |
| GFDLNEYGIS | VIYADGMRTFYADSVK | GETAGTFDM | -0.70 -0.55 -0.75 -1.01 -0.91 -0.79 | -0.78 | 0 of 18 |

The authors' rule: three or more of the six replicates give a measured affinity, fewer mean a poor binder.
As a blank, each scFv also met three strains without target: over all heavy chain designs, 1% of these pairings were detected, typically at 2.08 and seldom below 0.84. For each scFv, signals with the empty controls are counted beside the result, with their mean in brackets.
Of ten entries with the parent sequence, four were seen in most replicates (averages 0.34 to 2.37), three in one and three in none, so single entries are noisy.

From the AlphaSeq antibody data of Li et al. 2023 (doi:10.1038/s41467-023-39022-2), copy in the FLAb collection.